Laboratory results taken from paper PMC3745031 (Bioorganic & medicinal chemistry letters, 2012).

Tested on: HDAC1, HDAC3, and HDAC6
Experiment: Isoform preference across HDAC1, HDAC3 and HDAC6
Assay type: biochemical
Settings: 125 nM

## O=C(CCCCCCC(=O)Nc1ccccc1)NO [SAHA, Suberoylanilide hydroxamic acid]
  isoform preference in single-concentration screen: roughly equal inhibition against HDAC1, HDAC3, and HDAC6
